One compound from PubChem BioAssay AID504708 (Sanford-Burnham Center for Chemical Genomics, 2011) can be followed below.

The chains behind the UniProt entries cited, without tags or fusion partners. Where a name states a change or a piece, a line headed by the entry shows the natural chain unless it says otherwise.
UniProt Q2TB90: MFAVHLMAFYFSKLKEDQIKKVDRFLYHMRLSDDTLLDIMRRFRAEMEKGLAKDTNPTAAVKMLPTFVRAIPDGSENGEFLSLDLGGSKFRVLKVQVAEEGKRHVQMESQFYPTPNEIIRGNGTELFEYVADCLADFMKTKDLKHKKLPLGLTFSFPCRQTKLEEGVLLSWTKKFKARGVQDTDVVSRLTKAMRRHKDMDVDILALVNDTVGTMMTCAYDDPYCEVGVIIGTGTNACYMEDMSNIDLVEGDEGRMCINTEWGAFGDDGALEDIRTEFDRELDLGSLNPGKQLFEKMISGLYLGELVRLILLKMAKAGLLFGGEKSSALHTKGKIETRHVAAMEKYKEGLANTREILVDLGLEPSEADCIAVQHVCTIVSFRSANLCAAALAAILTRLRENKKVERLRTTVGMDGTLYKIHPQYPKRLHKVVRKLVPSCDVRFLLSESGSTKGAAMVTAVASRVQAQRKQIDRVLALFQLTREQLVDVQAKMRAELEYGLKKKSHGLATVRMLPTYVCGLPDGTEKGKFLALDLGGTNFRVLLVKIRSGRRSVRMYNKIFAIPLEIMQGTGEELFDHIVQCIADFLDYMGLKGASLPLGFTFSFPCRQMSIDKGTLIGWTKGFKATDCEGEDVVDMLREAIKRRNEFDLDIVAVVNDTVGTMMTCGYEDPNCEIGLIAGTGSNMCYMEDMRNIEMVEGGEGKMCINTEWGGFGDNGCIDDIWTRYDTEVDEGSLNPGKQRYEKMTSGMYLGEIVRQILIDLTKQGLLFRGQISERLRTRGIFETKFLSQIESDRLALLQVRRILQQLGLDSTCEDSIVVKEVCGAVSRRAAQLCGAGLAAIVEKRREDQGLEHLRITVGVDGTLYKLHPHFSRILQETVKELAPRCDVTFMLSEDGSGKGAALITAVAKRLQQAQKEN

A word on the inhibition: it is how much of the control response was suppressed.

The entries are a selection whose mix differs from that of the whole data set. Active and inactive are the calls of the source.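 The calls were made as follows: active = inhibition at or below a set negative limit, negative inhibition meaning the enzyme was activated; inactive = the rest.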

This test concerns the target Hexokinase HKDC1 (Homo sapiens) (UniProt Q2TB90). In words: HKDC1 hexokinase activators, confirmation, biochemical, single concentration (AID 504708). The settings on record: recombinant HKDC1, G6PDH/diaphorase resazurin fluorescence; at 20 µM; hits give low values.

Take `CN(C)C(=O)c1cc([N+](=O)[O-])cc2c1-c1c(cc([N+](=O)[O-])cc1[N+](=O)[O-])C2=O`: the inhibition is inactive: 56.7%.
